By UniProt entry, the sequences of proteins in these tests, tags left out. Residues count along the entry.
UniProt P31596, 7-550 limits assumed: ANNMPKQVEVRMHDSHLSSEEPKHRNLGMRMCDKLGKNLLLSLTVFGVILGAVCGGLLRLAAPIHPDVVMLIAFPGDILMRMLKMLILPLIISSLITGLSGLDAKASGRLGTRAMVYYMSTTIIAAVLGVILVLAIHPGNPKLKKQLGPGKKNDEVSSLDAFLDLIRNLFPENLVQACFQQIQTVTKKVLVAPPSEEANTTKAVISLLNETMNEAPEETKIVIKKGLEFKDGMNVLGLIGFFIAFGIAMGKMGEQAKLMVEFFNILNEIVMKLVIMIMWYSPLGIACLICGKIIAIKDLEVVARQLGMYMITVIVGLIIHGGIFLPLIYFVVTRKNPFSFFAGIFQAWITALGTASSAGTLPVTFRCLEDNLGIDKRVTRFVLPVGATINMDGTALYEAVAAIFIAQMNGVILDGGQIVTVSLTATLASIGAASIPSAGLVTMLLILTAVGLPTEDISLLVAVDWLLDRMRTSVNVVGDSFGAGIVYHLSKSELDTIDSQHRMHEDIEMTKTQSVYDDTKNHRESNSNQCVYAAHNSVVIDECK

In paper PMC9469208 (Journal of Medicinal Chemistry, 2022):

Assays:
[1] = test system: spontaneous locomotor activity of mice
[2] = test system: PTZ-induced kindling in mice
[3] = test system: PTZ-induced seizures in zebrafish larvae; conditions: 4 mM, 24 h preincubation, then 20 mM PTZ; vs only PTZ-treated larvae
[4] = target: EAAT2 (primary glia cells) (Rattus norvegicus, UniProt P31596)
[5] = test system: NMDA receptors (tonic NMDA currents)
GABA transporter GAT-1 = conditions: 0.01–100 µM, 4 independent assays, COS-7 cells; listed as (R)-7 [(R)-AS-1]
GABA transporter GAT-3 = conditions: 0.01–100 µM, 4 independent assays, COS-7 cells; listed as (R)-7 [(R)-AS-1]

Structure (SMILES)	spontaneous locomotor activity, [%] inhibition/activation vs vehicle-treated group ([1]; 30 mg/kg i.p.) [%]	spontaneous locomotor activity, [%] inhibition/activation vs vehicle-treated group ([1]; 60 mg/kg i.p.) [%]	spontaneous locomotor activity, [%] inhibition/activation vs vehicle-treated group ([1]; 90 mg/kg i.p.) [%]	effect on kindling progression ([2]; 40 mg/kg i.p.)	effect on mean seizure severity score ([2]; 10 and 20 mg/kg i.p.)	duration of EEG events [3]	number of EEG events [3]	increase in Vmax of glutamate uptake ([4]; 10 nM compound) [%]	increase in Vmax of glutamate uptake ([4]; 100 nM compound) [%]	Vmax of glutamate uptake ([4]; + 10 nM compound) [pmol/well/min]	Vmax of glutamate uptake ([4]; + 100 nM compound) [pmol/well/min]	influence on tonic NMDA currents [5]	tonic NMDA current amplitude after ten minutes application [5] [pA]	% Effect, GABA transporter GAT-1 (Substrate radioligand) (GABA transporter GAT-1)	% Effect, GABA transporter GAT-3 (Substrate radioligand) (GABA transporter GAT-3)
C[C@H](C(=O)NCc1ccccc1F)N1C(=O)CCC1=O [(R)-8, (R)-2-(2,5-Dioxopyrrolidin-1-yl)-N-(2-fluorobenzyl)propanamide]	102.3	118.6	141.6	–	–	–	–	–	–	–	–	–	–	–	–
C[C@H](C(=O)NCc1ccccc1)N1C(=O)CCC1=O [(R)-7, (R)-N-Benzyl-2-(2,5-dioxopyrrolidin-1-yl)propanamide]	–	–	–	significantly delayed kindling progression	significantly decreased mean seizure severity score only after 9th and 14th PTZ injection	shorter duration of events	lower number of events	~147	~174	28 ± 7	33 ± 3	did not influence	147.3±5.9	0% and 0 (4 independent assays in 24 well plates) %	0% and 0 (4 independent assays in 24 well plates) %

Where “and” joins values, the source holds several entries; their conditions need not be identical. Equal entries are not always repeated. Where two headings read alike, the source gives them in different places.
